{
  "source": "PubChem BioAssay AID602332",
  "about": "(National Center for Advancing Translational Sciences (NCATS), 2012)",
  "note": "Only a part is listed here, and it is no random draw. Activity calls are given as the source filed them. The call rests on the fitted dose curve; in most records, active means well fitted activation curve with a large enough effect; inconclusive means small, poorly fitted or top-dose-only effect; inactive means no such curve, though single readings can be large or run the other way.",
  "data": [
    {"assay": "qHTS for Inducers of the Endoplasmic Reticulum Stress Response (ERSR) in Human Glioma: qHTS; further: % of control where 0% means no effect; nearly all actives have a fitted effect of over 35% in size", "details": "U87-MG GRP78 promoter luciferase reporter, 16 h; stronger effect = higher value", "values": [
      {"smiles": "O=C(OC1CN2CCC1CC2)C1c2ccccc2C=Cc2ccccc21", "note": "(stereo unspecified)", "activation": "inactive: -3.99%"},
      {"smiles": "O=C(NCC1(N2CCOCC2)CCCCC1)c1cc(Br)ccc1Cl", "activation": "inactive: -4.19%"},
      {"smiles": "COc1cc(C(=O)NCC2(N3CCOCC3)CCCCC2)cc(OC)c1C", "activation": "inactive: -3.16%"},
      {"smiles": "CCCCn1nnnc1C(c1ccccc1)N1CCC(n2c(=O)[nH]c3ccccc32)CC1", "note": "(stereo unspecified)", "activation": "inactive: -4.67%"},
      {"smiles": "O=c1[nH]c2ccccc2n1C1CCN(C(c2ccnc3ccccc23)c2nnnn2C2CCCC2)CC1", "note": "(stereo unspecified)", "activation": "inactive: -0.331%"},
      {"smiles": "COc1ccc(C(=O)NCC2(N3CCOCC3)CCCCC2)cc1OC", "activation": "inactive: -4.06%"},
      {"smiles": "O=Cc1ccc(N(CCCl)CCCl)cc1", "activation": "inactive: 0.255%"},
      {"smiles": "O=c1[nH]c2ccccc2n1C1CCN(C(c2cccs2)c2nnnn2C2CCCCC2)CC1", "note": "(stereo unspecified)", "activation": "inactive: -5.83%"},
      {"smiles": "CCC(CO)(C(=O)OC1CN2CCC1CC2)c1ccccc1", "note": "(stereo unspecified)", "activation": "inactive: 1.61%"},
      {"smiles": "COc1cccc(C(=O)N(c2cc(C)cc(C)c2)C2CCN(C(=O)OC(C)(C)C)CC2)c1", "activation": "inactive: -5.32%"},
      {"smiles": "COc1cc(OC)cc(C(=O)NCC2(N3CCOCC3)CCCCC2)c1", "activation": "inactive: -2.59%"},
      {"smiles": "COc1cccc(C(c2nnnn2C2CCCC2)N2CCC(n3c(=O)[nH]c4ccccc43)CC2)c1OC", "note": "(stereo unspecified)", "activation": "inactive: -2.66%"},
      {"smiles": "COc1cc(C(=O)NCC2(N3CCOCC3)CCCCC2)cc(OC)c1OC", "activation": "inactive: -3.29%"},
      {"smiles": "CN1CCC(Nc2ccc(Cl)cc2)CC1", "activation": "inactive: -0.531%"},
      {"smiles": "CN1CCC(Nc2ccc(F)c(Cl)c2)CC1", "activation": "inactive: -2.41%"},
      {"smiles": "CCOc1ncccc1C(=O)NCC1(N2CCOCC2)CCCCC1", "activation": "inactive: -3.82%"},
      {"smiles": "O=c1[nH]c2ccccc2n1C1CCN(C(c2cc3ccccc3o2)c2nnnn2C2CCCC2)CC1", "note": "(stereo unspecified)", "activation": "inactive: -3.42%"},
      {"smiles": "CCCOc1ccc(C(=O)NCC2(N(C)C)CCCCC2)cc1", "activation": "inactive: -0.605%"},
      {"smiles": "ClCCN(CCCl)c1ccccc1", "activation": "inactive: -1.41%"},
      {"smiles": "ClCCN(CCCl)c1ccc(C=C2C=CC=C2)cc1", "activation": "inactive: -7.46%"},
      {"smiles": "O=C(O)C1(Nc2ccccc2)CCN(Cc2ccccc2)CC1", "activation": "inactive: -3.13%"},
      {"smiles": "CC(C)(C)OC(=O)N1CCC(Nc2ccccc2)CC1", "activation": "inactive: -1.33%"},
      {"smiles": "CCN1CCC(Nc2cccc(F)c2)CC1", "activation": "inactive: -1.66%"},
      {"smiles": "COc1ccc(C(c2nnnn2C2CCCCC2)N2CCC(n3c(=O)[nH]c4ccccc43)CC2)cc1", "note": "(stereo unspecified)", "activation": "inactive: -2.79%"},
      {"smiles": "CC(C)(C)n1nnnc1C(c1ccnc2ccccc12)N1CCC(n2c(=O)[nH]c3ccccc32)CC1", "note": "(stereo unspecified)", "activation": "inactive: -1.9%"},
      {"smiles": "Cc1ccccc1NC1(C#N)CCN(Cc2ccccc2)CC1", "activation": "inactive: -3.84%"},
      {"smiles": "CN(C)c1ccc(C(=O)NCC2(N3CCCCC3)CCCCC2)cc1", "activation": "inactive: 1.26%"},
      {"smiles": "Cn1c(=O)[nH]cc(N(CCCl)CCCl)c1=O", "activation": "inactive: -4.43%"},
      {"smiles": "O=C(NCC1(N2CCCCC2)CCCCC1)c1ccco1", "activation": "inactive: -1.95%"},
      {"smiles": "CC(C)(C)c1ccc(C(=O)NCC2(N3CCOCC3)CCCCC2)cc1", "activation": "inactive: -2.34%"},
      {"smiles": "Cc1ccccc1C(=O)NCC1(N(C)C)CCCCC1", "activation": "inactive: 6.33%"},
      {"smiles": "COc1cc(OC)cc(C(=O)NCC2(N3CCCCC3)CCCCC2)c1", "activation": "inactive: 2.65%"},
      {"smiles": "O=c1[nH]c2ccccc2n1C1CCN(C(c2ccnc3ccccc23)c2nnnn2C2CCCCC2)CC1", "note": "(stereo unspecified)", "activation": "inactive: -4.45%"},
      {"smiles": "CCC(c1nnnn1C1CCCCC1)N1CCC(n2c(=O)[nH]c3ccccc32)CC1", "note": "(stereo unspecified)", "activation": "inactive: -2.73%"},
      {"smiles": "CN(C)C1(CNC(=O)c2ccc(C(C)(C)C)cc2)CCCCC1", "activation": "inactive: -2.28%"},
      {"smiles": "COc1cccc(C(c2nnnn2C2CCCCC2)N2CCC(n3c(=O)[nH]c4ccccc43)CC2)c1OC", "note": "(stereo unspecified)", "activation": "inactive: -4.34%"},
      {"smiles": "CC(=O)N(c1ccccc1)C1CCNCC1", "activation": "inactive: -2.06%"},
      {"smiles": "Cc1ccc(NC2(C#N)CCN(Cc3ccccc3)CC2)cc1", "activation": "inactive: -1.67%"},
      {"smiles": "Fc1ccccc1NC1CCN(Cc2ccccc2)CC1", "activation": "inactive: -2.92%"},
      {"smiles": "Cc1ccc(Nc2c([N+](=O)[O-])cc([N+](=O)[O-])cc2[N+](=O)[O-])cc1", "activation": "inactive: -5.17%"},
      {"smiles": "Cc1ccc(C(=O)NCC2(N3CCCCC3)CCCCC2)o1", "activation": "inactive: -3.88%"}
    ]}
  ]
}
